This passage reports EC50 results from patent US20240199612A1, “IMIDAZOPYRIDINYL INHIBITORS OF PLASMA KALLIKREIN” (SHIRE HUMAN GENETIC THERAPIES, INC., priority 2021, published 2024).

The chains behind the UniProt entries cited, without tags or fusion partners. Residues count along the entry.
UniProt P03952, 391-638 limits assumed: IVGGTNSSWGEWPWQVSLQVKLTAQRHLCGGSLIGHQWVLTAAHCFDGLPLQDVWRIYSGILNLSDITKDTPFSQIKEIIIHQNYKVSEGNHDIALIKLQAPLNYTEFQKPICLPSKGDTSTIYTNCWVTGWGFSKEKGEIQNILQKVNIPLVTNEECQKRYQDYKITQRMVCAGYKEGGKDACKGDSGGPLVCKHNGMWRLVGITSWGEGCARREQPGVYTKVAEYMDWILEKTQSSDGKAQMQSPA
UniProt P03952, 20-390 partner limits assumed: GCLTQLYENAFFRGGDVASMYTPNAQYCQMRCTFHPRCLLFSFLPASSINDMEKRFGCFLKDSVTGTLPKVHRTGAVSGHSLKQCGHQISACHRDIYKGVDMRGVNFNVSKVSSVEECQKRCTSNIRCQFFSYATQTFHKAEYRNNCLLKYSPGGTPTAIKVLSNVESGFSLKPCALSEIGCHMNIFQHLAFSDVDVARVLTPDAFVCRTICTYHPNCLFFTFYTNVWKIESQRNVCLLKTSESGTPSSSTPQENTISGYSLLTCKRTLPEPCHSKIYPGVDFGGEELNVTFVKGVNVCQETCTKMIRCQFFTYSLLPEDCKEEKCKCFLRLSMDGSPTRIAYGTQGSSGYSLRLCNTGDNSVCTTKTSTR

Molecules are shown by their SMILES.

This experiment deals with human activated kallikrein enzyme (Homo sapiens, UniProt P03952). The experiment is described as follows: Inhibition of human activated plasma kallikrein, fluorogenic peptide substrate (PFR-AMC) assay, 500 pM enzyme format. The following applies: read-out: Primary Dose Response Assay: Average EC50; format with 500 pM activated kallikrein, 300 uM PFR-AMC, 30 min preincubation, 10 min reaction, room temperature.

Consider `O=C(Nc1nccc2c1cnn2Cc1cn2cc(C3CC3)ccc2n1)OCc1cccc(Cl)c1`, for which the half-maximal effective concentration (EC50) was above 9 µM.
